According to ChEMBL document CHEMBL5543069, “DW71177: A novel [1,2,4]triazolo[4,3-a]quinoxaline-based potent and BD1-Selective BET inhibitor for the treatment of acute myeloid leukemia” (Eur J Med Chem, 2024):

How the values were obtained:
Ty-82 = experiment: Cytotoxicity against human Ty-82 cells assessed as growth inhibition incubated for 72 hrs by WST-1 assay; conditions: TY82, 72 h
MOLT-4 = experiment: Antiproliferative activity against human MOLT-4 cells assessed as growth inhibition incubated for 72 hrs by WST-1 assay; conditions: MOLT-4, 72 h
in vivo [1] = conditions: rat, po, 20 mg/kg
K562 = experiment: Antiproliferative activity against human K562 cells assessed as growth inhibition incubated for 72 hrs by WST-1 assay; conditions: K562, 72 h
in vivo [2] = conditions: rat, po, 20 mg/kg; remark: listed apart in the source
U2932 = experiment: Antiproliferative activity against human U2932 cells assessed as growth inhibition incubated for 72 hrs by WST-1 assay; conditions: U2932, 72 h
MV4-11 = experiment: Cytotoxicity against human MV4-11 cells assessed as growth inhibition incubated for 72 hrs by WST-1 assay; conditions: MV4-11, 72 h
THP-1 = experiment: Antiproliferative activity against human THP-1 cells assessed as growth inhibition incubated for 72 hrs by WST-1 assay; conditions: THP-1, 72 h
NCI-H1975 = experiment: Antiproliferative activity against human NCI-H1975 cells assessed as growth inhibition incubated for 72 hrs by WST-1 assay; conditions: NCI-H1975, 72 h
Pfeiffer = experiment: Antiproliferative activity against human Pfeiffer cells assessed as growth inhibition incubated for 72 hrs by WST-1 assay
in vivo [3] = conditions: rat, po, 20 mg/kg; remark: listed apart in the source
[4] = Antiproliferative activity against human SNU-2535 cells assessed as growth inhibition incubated for 72 hrs by WST-1 assay; conditions: SNU-2535, 72 h
in vivo [5] = conditions: rat, po, 20 mg/kg; remark: listed apart in the source
NCI-H1666 = experiment: Antiproliferative activity against human NCI-H1666 cells assessed as growth inhibition incubated for 72 hrs by WST-1 assay; conditions: NCI-H1666, 72 h
KU-19-19 = experiment: Antiproliferative activity against human KU-19-19 cells assessed as growth inhibition incubated for 72 hrs by WST-1 assay; conditions: KU-19-19, 72 h
in vivo [6] = conditions: rat, po, 20 mg/kg; remark: listed apart in the source
SUD4 = experiment: Antiproliferative activity against human SU-DHL-4 cells assessed as growth inhibition incubated for 72 hrs by WST-1 assay; conditions: SU-DHL-4, 72 h
Raji = experiment: Antiproliferative activity against human Raji cells assessed as growth inhibition incubated for 72 hrs by WST-1 assay
Daudi = experiment: Antiproliferative activity against human Daudi cells assessed as growth inhibition incubated for 72 hrs by WST-1 assay
T-24 = experiment: Antiproliferative activity against human T24 cells assessed as growth inhibition incubated for 72 hrs by WST-1 assay; conditions: T-24, 72 h
LS-1034 = experiment: Antiproliferative activity against human LS1034 cells assessed as growth inhibition incubated for 72 hrs by WST-1 assay; conditions: LS-1034, 72 h

SMILES: Cc1nnc2c(NCCCNC(=O)OC(C)(C)C)nc3ccccc3n12
- GI50 (Ty-82): 3.5 µM

SMILES: Cc1nnc2c(NCCNC(=O)OC(C)(C)C)nc3ccccc3n12
- GI50 (Ty-82): 5 µM

SMILES: Cc1nnc2c(NCCCCCNC(=O)OC(C)(C)C)nc3ccccc3n12
- GI50 (Ty-82): 5.2 µM

SMILES: COc1ccc2c(c1)nc(NCCCCNC(=O)CC(C)C)c1nnc(C)n12
- GI50 (MOLT-4): > 10 µM
- half-life (in vivo [1]): 78 min
- GI50 (K562): > 10 µM
- Cmax (in vivo [2]): 3050 ng/mL
- GI50 (U2932): > 10 µM
- GI50 (MV4-11): 0.05 µM
- GI50 (THP-1): 0.05 µM
- GI50 (NCI-H1975): > 10 µM
- GI50 (Pfeiffer): 0.48 µM
- Tmax (in vivo [3]): 30 min
- GI50 [4]: > 10 µM
- AUC(0-t) (in vivo [5]): 3610 ng·h/mL
- GI50 (NCI-H1666): > 10 µM
- GI50 (Ty-82): 0.091 µM
- GI50 (KU-19-19): 9.1 µM
- AUC(0-inf) (in vivo [6]): 3870 ng·h/mL
- GI50 (SUD4): 3.3 µM
- GI50 (Raji): > 10 µM
- GI50 (Daudi): 2.4 µM
- GI50 (T-24): 5 µM
- GI50 (LS-1034): > 10 µM
